# Target: Cholinesterase (Homo sapiens, UniProt P06276)
# Amino acid sequences for entries named in this document (tags omitted).
# UniProt P06276, whole entry: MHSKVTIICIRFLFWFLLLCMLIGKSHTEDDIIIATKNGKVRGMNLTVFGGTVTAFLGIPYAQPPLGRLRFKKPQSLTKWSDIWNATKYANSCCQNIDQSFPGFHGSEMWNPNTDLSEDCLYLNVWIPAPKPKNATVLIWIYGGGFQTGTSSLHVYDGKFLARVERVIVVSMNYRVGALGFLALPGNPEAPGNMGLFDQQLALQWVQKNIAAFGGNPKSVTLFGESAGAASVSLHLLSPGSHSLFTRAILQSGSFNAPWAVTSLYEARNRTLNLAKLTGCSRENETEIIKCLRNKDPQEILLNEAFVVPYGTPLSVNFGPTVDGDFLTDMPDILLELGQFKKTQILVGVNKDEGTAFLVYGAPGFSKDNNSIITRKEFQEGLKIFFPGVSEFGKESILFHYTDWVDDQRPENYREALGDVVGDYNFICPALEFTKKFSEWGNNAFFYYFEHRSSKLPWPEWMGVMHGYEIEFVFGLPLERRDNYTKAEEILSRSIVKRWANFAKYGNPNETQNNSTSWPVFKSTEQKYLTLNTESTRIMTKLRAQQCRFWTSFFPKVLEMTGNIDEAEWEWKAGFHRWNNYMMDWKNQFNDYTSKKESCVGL
# Test: Binding affinity to human BuChE (unknown origin) assessed as overall carbamolyation rate at 0.01 to 40 nM incubated for 60 mins
smiles,measurement,value
CCN(C)C(=O)Oc1cccc([C@H](C)N(C)C)c1 [3-[(1S)-1-(dimethylamino)ethyl]phenyl N-ethyl-N-methylcarbamate],Ki,5.7 nM

# From BindingDB's records for PubMed 39481228 (Anhui Medical University)
